# Target: Grp94 (Canis lupus familiaris, UniProt P41148)
# Sequences of proteins named here, by UniProt entry; tags and fusion partners are left off. A change or cut given only in a name is not applied to a line headed by its entry.
# UniProt P41148: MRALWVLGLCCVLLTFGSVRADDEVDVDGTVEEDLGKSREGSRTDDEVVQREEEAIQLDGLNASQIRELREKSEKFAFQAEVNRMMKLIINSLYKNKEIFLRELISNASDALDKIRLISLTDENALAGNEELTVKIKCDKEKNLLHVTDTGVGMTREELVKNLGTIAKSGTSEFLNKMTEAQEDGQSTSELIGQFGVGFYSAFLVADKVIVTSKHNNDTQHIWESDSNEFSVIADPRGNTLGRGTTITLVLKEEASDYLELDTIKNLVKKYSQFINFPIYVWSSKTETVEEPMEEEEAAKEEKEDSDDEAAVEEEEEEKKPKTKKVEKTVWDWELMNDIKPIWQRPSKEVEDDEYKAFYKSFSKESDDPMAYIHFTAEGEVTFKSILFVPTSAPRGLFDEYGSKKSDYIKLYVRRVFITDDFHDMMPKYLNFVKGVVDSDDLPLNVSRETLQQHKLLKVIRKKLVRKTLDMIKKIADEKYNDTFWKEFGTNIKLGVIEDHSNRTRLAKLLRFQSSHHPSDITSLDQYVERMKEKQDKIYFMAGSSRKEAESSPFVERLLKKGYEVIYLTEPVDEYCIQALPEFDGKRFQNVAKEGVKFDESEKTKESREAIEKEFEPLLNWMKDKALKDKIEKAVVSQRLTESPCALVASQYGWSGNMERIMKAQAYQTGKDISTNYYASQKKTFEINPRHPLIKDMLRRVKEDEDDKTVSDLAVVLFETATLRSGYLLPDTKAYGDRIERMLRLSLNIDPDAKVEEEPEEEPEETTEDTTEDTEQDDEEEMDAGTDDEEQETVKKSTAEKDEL
# Details: read-out: Grp94; FP competition, 6 nM Cy3B-GM, 10 nM protein, 4° C. for 24 h
compound,measurement,value
C#CCCCn1c(Sc2cc(C)ccc2C)nc2c(N)ncnc21 [PU-H27],IC50,1140 ± 140 nM
